scFv variants of Ab-14 (heavy chain) against a SARS-CoV-2 spike peptide

Binding partner: SARS-CoV-2 spike HR2 peptide, sequence PDVDLGDISGINAS.

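The parent was found by panning a naive human phage display library on the peptide. In library AAYL49, one, two or three CDR residues were substituted; doubles and triples were drawn at random. The assay is AlphaSeq: two haploid yeast populations carry antibody and antigen on their surface. Binding brings cells together so that they mate, and sequencing counts the barcode pairs among the diploids. Read counts were normalised to the haploid input and turned into Kd by a linear fit to BCL2-family pairs of known affinity, for each replicate. The assay was run in three technical replicates.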

The variants keep the light chain, the linker and the frameworks of Ab-14 (scFv order VH, a (GGGGS)3 linker, VL).
VH: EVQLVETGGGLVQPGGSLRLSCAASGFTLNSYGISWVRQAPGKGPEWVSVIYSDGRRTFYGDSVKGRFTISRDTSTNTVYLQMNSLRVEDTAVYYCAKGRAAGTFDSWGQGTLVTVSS
VL: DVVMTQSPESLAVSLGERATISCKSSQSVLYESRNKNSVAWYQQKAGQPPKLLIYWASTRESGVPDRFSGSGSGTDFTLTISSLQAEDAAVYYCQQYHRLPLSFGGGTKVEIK

Variants are written as CDR1, CDR2 and CDR3 of the heavy chain (limits as in the source). Parent: GFTLNSYGIS, VIYSDGRRTFYGDSVK, GRAAGTFDS.
Affinities are written as log10 Kd with Kd in nM; a lower number is a better binder.
An entry "nd" has no value in the source: the pair was not observed among the diploids in that replicate. This suggests poor binding but is not conclusive.
Empty control strains, which show no peptide, gave a signal in 15% of pairings with library AAYL49; the median was 4.06 and 95% of these signals were weaker than 2.83. No background was subtracted. For each scFv, signals with the empty controls are counted beside the result, with their mean in brackets.

CDR-H1 | CDR-H2 | CDR-H3 | log10 Kd (nM) by replicate | empty controls
GFTLNSYGNS | VIYSDGRKTFYGDSVK | GRAAGTFRS | nd / nd / nd | 0 of 9
GFFLNSYGSS | VIYSDGRRTFRGDSVK | GRAAGTFDS | nd / nd / nd | 0 of 9
GFTANSYGTS | VIYSDGRRTIYGDSVK | GRAAGTFDS | nd / nd / nd | 1 of 9 (2.72)
GFTLNSYGIS | VIRSDGRRTFYTDSVK | GRATGTFDS | 4.60 / 4.11 / 4.57 | 7 of 9 (4.46)
GFDLNSYGIS | VIYSVGRRTFYGDSVK | GRAALTFDS | nd / nd / 3.61 | 0 of 9
RFTLNSYGIS | VIYDDGRRTFYGDSVK | IRAAGTFDS | nd / nd / nd | 3 of 9 (4.55)
GFTLNSQGIS | VIYSDGRRDFYGISVK | GRAAGTFDS | nd / nd / nd | 0 of 9
GFTLNSLAIS | VIYSDGRRTFYGDEVK | GRAAGTFDS | 4.43 / 4.06 / 3.94 | 1 of 9 (4.58)
DFTLNSYGIS | VIYSCGRRTFYGDSVK | GRAAGTFDS | nd / nd / nd | 0 of 9
GFTLNSKGYS | VIYVDGRRTFYGDSVK | GRAAGTFDS | nd / nd / nd | 0 of 9
GFTRNTYGIS | VIYSDGRRTFYGYSVK | GRAAGTFDS | nd / nd / nd | 2 of 9 (2.51)
GFTLNSYGII | VIYSDGRRTFYGDSVK | GRIEGTFDS | 3.57 / nd / nd | 0 of 9
DFTLNSYGIS | VIYSDGERTFYGDSVK | GKAAGTFDS | 1.68 / 1.83 / 1.83 | 2 of 9 (3.95)
GFTLNSYGIS | VIYSDGARTCYGDSVK | GRAYGTFDS | 3.04 / nd / 2.79 | 1 of 9 (4.26)
GFTLNSYGIS | VIYSDGRRTFFGDSVK | GRAAGTFDI | 2.59 / 2.13 / 2.02 | 2 of 9 (4.48)
GFTLNIYGIS | VLYSDGRRTFYGDSVK | GRSAGTFDS | 3.82 / 3.73 / 4.32 | 6 of 9 (3.93)
GFTLNAPGIS | VIYSDGRRTFYGDSVK | GRAAITFDS | nd / nd / nd | 1 of 9 (3.31)
GFGLNSYGIS | VIYSDGRRTFYGDSKP | GRAAGTFDS | nd / nd / nd | 0 of 9
KFTLNSSGIS | KIYSDGRRTFYGDSVK | GRAAGTFDS | 4.86 / 3.95 / 6.36 | 8 of 9 (5.03)
GFTKNIYGIS | VIYSDGRRTFYGDSVK | GRAAGTFWS | nd / nd / nd | 0 of 9
GFTLNSYGIS | VIYSDGRRTFYGDFVK | GLAAGTFDS | nd / 3.15 / 5.71 | 1 of 9 (3.73)
GFTLNSYGIS | QIYSDGYRTFYGDSVK | YRAAGTFDS | nd / nd / nd | 1 of 9 (2.69)
NFTLKSYGIS | VIYSDGKRTFYGDSVK | GRAAGTFDS | 1.70 / 1.23 / 2.37 | 0 of 9
AFTLNSYGIS | VIYSDGRREFYGDSVK | GRAAGTQDS | nd / 4.03 / nd | 1 of 9 (3.56)
GFTLNSYGIS | VYYTDGERTFYGDSVK | GRAAGTFDS | nd / nd / nd | 1 of 9 (4.34)
GFTLNRYCIS | VIYSDGRRTFYGDSVK | GRQAGTFDS | nd / nd / nd | 0 of 9
GFTLNSYGIS | VITSDGRRTFYGDSVK | GRASGTYDS | nd / nd / nd | 1 of 9 (3.15)
GFTLNSYGIS | VIYSDGRRTFYTDSVK | GRAAGTFDS | 0.58 / 0.75 / 0.76 | 2 of 9 (3.44)
GFTLNSYGIS | VIYSDGRRTFYGDSVQ | GRAAGKFDS | 2.14 / 2.03 / 1.94 | 3 of 9 (4.46)
GFTLNSYGIS | VIYSHGRRTFRGDSVK | GRAIGTFDS | nd / nd / nd | 0 of 9
GPTLNSYGIS | VIYSDGRMMFYGDSVK | GRAAGTFDS | nd / 2.69 / 4.07 | 2 of 9 (3.10)
GFTLNSYGIS | VIYSDGRRTFYWDSVK | GPAAGTFDC | 3.29 / nd / nd | 0 of 9
GFTLNSYGIS | VIYSTGRLTFYGDSRK | GRAAGTFDS | nd / nd / nd | 1 of 9 (3.67)
GFTLNSYGIC | VCYSDGRRTTYGDSVK | GRAAGTFDS | 4.79 / nd / 4.82 | 4 of 9 (4.65)
GFTLNWYGIS | VIFSDGRRTFYGDSVK | GRAAGTFDS | nd / nd / nd | 0 of 9
GETCNSYGIS | VIYSDTRRTFYGDSVK | GRAAGTFDS | nd / nd / nd | 5 of 9 (4.30)
GFTLNSYGCS | VIYSDGRYTFYGDSVK | GRAAYTFDS | nd / 4.51 / 6.23 | 3 of 9 (4.75)
GFTLNSYGIS | NIYSDYRRTFYYDSVK | GRAAGTFDS | nd / nd / nd | 1 of 9 (4.43)
GFTLNKYGIS | VIYSDGRRTYYGDSVG | GRAAGTFDS | 2.54 / 3.07 / 2.72 | 2 of 9 (3.06)
DFTLNSYGIQ | VIRSDGRRTFYGDSVK | GRAAGTFDS | nd / nd / nd | 1 of 9 (4.42)
GFTLNSYGIM | VIYSDGRRTFYGDSVA | GSAAGTFDS | 4.30 / 2.92 / nd | 4 of 9 (3.45)
GPTLNSYGIS | VIYSDGRRTFYHDSVK | GRAAGTFDS | 0.89 / 1.07 / 1.27 | 4 of 9 (4.21)
GFTLNSYGIS | VIYSDGRRTFYGDHEK | NRAAGTFDS | nd / 2.84 / nd | 1 of 9 (3.34)
GFTLNSYGIE | VIYSDGRRHFYGDSVK | GRADGTFDS | 3.68 / nd / nd | 1 of 9 (4.19)
GFTLNSTGIS | VIYSDGRRTFIGDSKK | GRAAGTFDS | nd / 5.36 / 4.64 | 2 of 9 (4.31)
GFTLNSSGID | VIYSDGRRTFYWDSVK | GRAAGTFDS | nd / nd / nd | 0 of 9
GFTLNSYGIS | VIYGDGRRTFYGDSVQ | GRAAGTFTS | 2.17 / 2.18 / 1.98 | 2 of 9 (3.99)
GGTLNSYGIS | VIYSDGRRTFYGDSVK | GRADGTCDS | nd / nd / nd | 0 of 9
GFTLNSYGIS | VIYSDCRRTFYGDYVK | GRAAGTFDS | 5.25 / 3.96 / nd | 7 of 9 (4.64)
GFTLNSYGIN | VIYFDGRRTFYGDSVK | GRAAGTFDT | 5.01 / nd / nd | 3 of 9 (3.31)
GFGNNSYGIS | HIYSDGRRTFYGDSVK | GRAAGTFDS | nd / nd / nd | 0 of 9

A selection of 6 entries from above:

{"CDR-H1": "GFTLNSYGIS", "CDR-H2": "VIYSDGARTCYGDSVK", "CDR-H3": "GRAYGTFDS", "log10 Kd (nM) by replicate": "3.04 / nd / 2.79", "empty controls": "1 of 9 (4.26)"}
{"CDR-H1": "GFTLNSYGIS", "CDR-H2": "VIYSDGRRTFFGDSVK", "CDR-H3": "GRAAGTFDI", "log10 Kd (nM) by replicate": "2.59 / 2.13 / 2.02", "empty controls": "2 of 9 (4.48)"}
{"CDR-H1": "GFTLNSYGII", "CDR-H2": "VIYSDGRRTFYGDSVK", "CDR-H3": "GRIEGTFDS", "log10 Kd (nM) by replicate": "3.57 / nd / nd", "empty controls": "0 of 9"}
{"CDR-H1": "GFGNNSYGIS", "CDR-H2": "HIYSDGRRTFYGDSVK", "CDR-H3": "GRAAGTFDS", "log10 Kd (nM) by replicate": "nd / nd / nd", "empty controls": "0 of 9"}
{"CDR-H1": "RFTLNSYGIS", "CDR-H2": "VIYDDGRRTFYGDSVK", "CDR-H3": "IRAAGTFDS", "log10 Kd (nM) by replicate": "nd / nd / nd", "empty controls": "3 of 9 (4.55)"}
{"CDR-H1": "DFTLNSYGIQ", "CDR-H2": "VIRSDGRRTFYGDSVK", "CDR-H3": "GRAAGTFDS", "log10 Kd (nM) by replicate": "nd / nd / nd", "empty controls": "1 of 9 (4.42)"}

Reference: Engelhart et al. 2022, doi:10.1038/s41597-022-01779-4. File: FLAb, binding data.